Measurements published in patent publication US20220162221A1, “Imaging Agents” (UCB Biopharma SRL, priority 2017, published 2022).

Protein sequences, listed by entry. Tags and fused reporters are not part of them. Lines headed by an entry give the natural chain unless they say otherwise; changes in a name come on top.
UniProt P21728, whole entry: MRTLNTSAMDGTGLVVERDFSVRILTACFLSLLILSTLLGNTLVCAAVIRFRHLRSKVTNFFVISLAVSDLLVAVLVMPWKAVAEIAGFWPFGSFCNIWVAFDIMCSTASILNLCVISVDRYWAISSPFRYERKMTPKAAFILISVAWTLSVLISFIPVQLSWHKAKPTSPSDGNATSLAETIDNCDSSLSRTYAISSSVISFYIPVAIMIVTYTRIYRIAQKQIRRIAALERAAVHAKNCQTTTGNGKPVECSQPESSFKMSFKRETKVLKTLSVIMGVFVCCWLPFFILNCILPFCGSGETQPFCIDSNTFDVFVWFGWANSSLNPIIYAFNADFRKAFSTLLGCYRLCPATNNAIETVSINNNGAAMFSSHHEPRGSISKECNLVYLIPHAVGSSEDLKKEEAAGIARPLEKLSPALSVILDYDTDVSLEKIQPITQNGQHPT

Molecular target: human D1R (Homo sapiens, UniProt P21728)
Experiment: Radioligand binding on HEK hD1R membranes with or without D1 PAM
Set-up: expressed in transfected cells; host or cells: HEK cells, transient transfection, pcDNA3.1; membrane preparation
Settings: HEK hD1R membranes (FIG. 3)
Protocol: Transient transfection of human dopamine D1R was performed with pcDNA3.1 vector in human embryonic kidney cells (HEK hD1R).
The membrane of HEK hD1R cells were used to measure radioligand binding. 48 hours post transfection, cells were pelleted by centrifugation at 1,500 g and 4° C. for 10 min. Pellet was washed once with ice-cold phosphate buffered saline solution (PBS) and centrifuged as described just above. Pellet was homogenized in a buffer containing 15 mM Tris-HCl, 0.3 mM ethylene diamine tetraacetic acid, 1 mM ethylene glycol tetraacetic acid, 2 mM MgCl2 (pH 7.5) and complemented with protease inhibitor cocktail. The homogenate was freeze-thawed twice and equilibrated at 25° C. followed by a 10 min DNAse (10 U/ml) treatment. Subsequently, the solution was centrifuged at 40,000 g and 4° C. for 30 min. Finally, the pellet was resuspended in 20 mM Tris-HCl buffer (pH 7.4) containing 250 mM sucrose and store at −80° C. until D1 radioligand binding assay. Membrane preparation of HEK hD1R (5 μg proteins per assay) were incubated for 120 min at 25° C. with (−)-(Ic) or [^3H]SCH23390 in 0.2 ml binding buffer containing 1% DMSO. At the end of the incubation period, the protein-bound radioligand was recovered by filtration through pre-soaked GF/B glass fiber filters. […] The filters were dried and the radioactivity determined by liquid scintillation. […]

## CN1CCc2cc(Cl)c(O)cc2C(c2ccccc2)C1 (stereo not shown) [[^3H]SCH23390, reference compound]
  effect of D1 PAM on radioligand binding: no effect
